Literature values as cited in US20260207703A1 (priority 2023, published 2026).

Conditions: nonlethal dose of xylazine 100 mg/kg

xylazine
decrease of the estimated LD50 dose for fentanyl: approximately 100 fold
